# Binding of CDR-mutated scFvs to a peptide of the spike HR2 region

Binding partner: SARS-CoV-2 spike HR2 peptide, sequence PDVDLGDISGINAS.

Ab-95 is the parent antibody, in scFv form: VH, then three GGGGS repeats, then VL. The heavy chain is unchanged in all variants.
VH: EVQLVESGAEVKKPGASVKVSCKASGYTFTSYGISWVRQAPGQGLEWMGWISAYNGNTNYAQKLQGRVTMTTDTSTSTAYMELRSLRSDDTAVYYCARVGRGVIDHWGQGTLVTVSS
VL: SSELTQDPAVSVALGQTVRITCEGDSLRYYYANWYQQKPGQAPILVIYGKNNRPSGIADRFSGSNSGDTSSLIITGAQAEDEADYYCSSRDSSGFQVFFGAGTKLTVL

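The starting antibody came from a phage panning campaign against this peptide. In library AAYL52, one, two or three CDR residues were substituted; doubles and triples were drawn at random. The assay is AlphaSeq: two haploid yeast populations carry antibody and antigen on their surface. After mating in shaken culture at 30 °C for 16 h, diploids were selected and their barcode pairs sequenced. A regression on co-assayed BCL2-family reference pairs converts the normalised counts of each replicate to an apparent Kd. There are three technical replicates.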

Changes read parent residue, position, new residue, counted from the first residue of the VL shown. Values are log10 of the apparent Kd in nM; lower means stronger binding. Averages over replicates are reported, and they cover detected replicates only. "ND" marks a missing value. The strain was present, yet no cells mated with the target were sequenced in that replicate, which points to weak or no binding. For reference, the parent read 2.31 as the reference entry and 2.25 as a member of this library. Empty control strains, which show no peptide, gave a signal in 28% of pairings with library AAYL52; the median was 3.91 and 95% of these signals were weaker than 2.90. No background was subtracted. For each scFv, signals with the empty controls are counted beside the result, with their mean in brackets.

changes,"replicates, log10 nM","log10 Kd (nM), mean",signal with controls
S26C Y31M S92R,3.54 3.83 ND,3.69,1/9 (4.33)
L27W N52I S92P,4.35 ND ND,4.35,3/9 (3.72)
N52M,1.97 2.04 1.76,1.92,4/9 (3.48)
A32W G49S R53L,3.53 5.41 ND,4.47,0/9
D25S G49A F98N,ND 3.94 ND,3.94,2/9 (3.81)
N33Q V97T F98R,ND ND ND,ND,1/9 (4.51)
N33W S93W V97L,3.53 4.13 ND,3.83,4/9 (3.99)
L27K G94L F95T,ND ND ND,ND,0/9
S26W G49P P54W,4.20 5.38 ND,4.79,4/9 (4.01)
R53P S55R F98Y,3.68 3.70 3.64,3.67,1/9 (3.60)
Y31T S93V V97N,2.85 2.53 1.14,2.17,2/9 (3.50)
S26R S55I,5.13 ND ND,5.13,3/9 (3.52)
Y30Q S89M D91Y,2.70 2.82 3.58,3.03,3/9 (4.48)
Y29L S92R V97Y,3.30 2.78 2.22,2.77,1/9 (4.11)
D91I S93K V97E,ND ND ND,ND,1/9 (2.91)
L27R S93C F95V,3.41 4.37 ND,3.89,6/9 (3.81)
D25L S55V S88E,2.58 2.25 2.04,2.29,3/9 (4.07)
S89V S93D Q96A,3.27 3.31 3.00,3.19,3/9 (4.03)
D25L Y30I S55P,2.68 3.20 2.18,2.69,8/9 (3.56)
E23S D91C S93F,2.74 2.76 3.71,3.07,2/9 (4.35)
S26I L27E,3.58 ND 3.10,3.34,1/9 (3.30)
N51L N52E S55R,2.75 2.16 2.01,2.31,4/9 (4.25)
S26R K50T N52S,3.05 4.24 2.97,3.42,4/9 (4.03)
D25L N52R P54R,3.60 3.79 3.33,3.57,7/9 (3.96)
N33W F95P,ND 3.66 3.81,3.74,1/9 (4.35)
S26A L27V S88G,2.76 3.41 2.69,2.95,3/9 (3.44)
S55G R90Y G94Y,2.53 2.99 2.81,2.78,1/9 (3.82)
Y30M G49T N51P,3.93 ND ND,3.93,3/9 (3.73)
G24A N51Q,3.59 ND ND,3.59,3/9 (3.23)
E23Y S89R G94S,2.91 3.14 ND,3.03,4/9 (4.38)
S26V Y30L A32L,5.33 5.99 ND,5.66,5/9 (3.92)
S26C Q96N V97H,ND ND 4.16,4.16,2/9 (3.13)
Y30G G49W V97F,ND ND ND,ND,1/9 (3.59)
R53S S55F,3.07 3.36 2.74,3.05,2/9 (4.63)
S88E R90L G94N,2.65 2.27 2.40,2.44,1/9 (4.74)
R28Q R90M,2.67 2.79 2.39,2.61,5/9 (3.79)
S26V Y31L N51C,5.00 ND 4.03,4.52,4/9 (3.39)

Repeated from above, the 2 best binders with a signal in all replicates:

| changes | replicates, log10 nM | log10 Kd (nM), mean | signal with controls |
|---|---|---|---|
| N52M | 1.97 2.04 1.76 | 1.92 | 4/9 (3.48) |
| Y31T S93V V97N | 2.85 2.53 1.14 | 2.17 | 2/9 (3.50) |

Source: Engelhart et al. 2022 (doi:10.1038/s41597-022-01779-4), MIT Lincoln Laboratory and A-Alpha Bio; data file from the FLAb repository.